Our source for the IC50 values is US9725465B2, “Biaryl acetamide compounds and methods of use thereof” (Ambit Biosciences Corporation, priority 2013, dated 2017).

In experiment [1] the test system is Ba/F3 cells expressing FLT3-ITD.
Another experiment has as its target FLT3-ITD-F691L (Homo sapiens (Human), UniProt P36888, F691L/INS600HVDFREYEYD). Briefly: pFLT3 MSD assay, Ba/F3 FLT3-ITD-F691L. The experiment is classed as cell-based. Conditions: Ba/F3 FLT3-ITD-F691L cells, 2 hours, read-out: BaF3-FLT3-ITD-F691L pFlt3 IC50.
The next experiment addresses FLT3-ITD-D835V (Homo sapiens (Human), UniProt P36888, D835V/INS600HVDFREYEYD). Briefly: pFLT3 MSD assay, Ba/F3 FLT3-ITD-D835V. The experiment is classed as cell-based. Conditions: Ba/F3 FLT3-ITD-D835V cells, 2 hours, read-out: BaF3-FLT3-ITD-D835V pFlt3 IC50.

Bounds are passed on as bounds.

The IC50 is the concentration that inhibits the measured activity by half. `COc1cc2ncc(-c3ccc(CC(=O)Nc4cc(C(C)(C)C(F)(F)F)on4)c(F)c3)cc2cc1OCCN1CC[C@H](O)[C@@H](F)C1` (stereo in doubt) [Example 87, 2-(2-Fluoro-4-{6-[2-(3-fluoro-4-hydroxy-piperidin-1-yl)-ethoxy]-7-methoxy-quinolin-3-yl}-phenyl)-N-[5-(2,2,2-trifluoro-1,1-dimethyl-ethyl)-isoxazol-3-yl]-acetamide] had an IC50 in experiment [1] of under 10 nM.

Regarding `COc1cc2nc(-c3ccc(CC(=O)Nc4cc(C5(C)CC5)no4)c(F)c3)cnc2cc1OCCN1CCOCC1` [Example 95, 2-(2-fluoro-4-(7-methoxy-6-(2-morpholinoethoxy)quinoxalin-2-yl)phenyl)-N-(3-(1-methylcyclopropyl)isoxazol-5-yl)acetamide], the IC50 in experiment [1] is under 10 nM.

As for `COc1cc2ncc(-c3ccc(CC(=O)Nc4cc(C(C)(C)C(F)(F)F)on4)c(F)c3)c(N)c2cc1OC` [Example 143, 2-[4-(4-amino-6,7-dimethoxy-3-quinolyl)-2-fluoro-phenyl]-N-[5-(2,2,2-trifluoro-1,1-dimethyl-ethyl)isoxazol-3-yl]acetamide], the IC50 at FLT3-ITD-F691L and at FLT3-ITD-D835V was over 50 nM throughout.

For `COc1cc2nc(-c3ccc(CC(=O)Nc4cc(C5(C(F)(F)F)CC5)on4)c(F)c3)cnc2cc1OC1COC1` [Example 144, 2-[2-fluoro-4-[7-methoxy-6-(oxetan-3-yloxy)quinoxalin-2-yl]phenyl]-N-[5-[1-(trifluoro-methyl)cyclopropyl]isoxazol-3-yl]acetamide], the IC50 on FLT3-ITD-F691L and at FLT3-ITD-D835V was under 10 nM throughout.

`COc1cc2ncc(-c3ccc(CC(=O)Nc4cc(C(C)(C)C(F)(F)F)on4)c(F)c3)c(OC)c2cc1OC` [Example 145, 2-[2-fluoro-4-(4,6,7-trimethoxy-3-quinolyl)phenyl]-N-[5-(2,2,2-trifluoro-1,1-dimethyl-ethyl)isoxazol-3-yl]acetamide]: the IC50 at FLT3-ITD-F691L and at FLT3-ITD-D835V was over 50 nM in each case.

For the compound `COc1cc2nc(Cl)c(-c3ccc(CC(=O)Nc4cc(C5(C(F)(F)F)CC5)on4)c(F)c3)nc2cc1OC` [Example 146, 2-[4-(3-chloro-6,7-dimethoxy-quinoxalin-2-yl)-2-fluoro-phenyl]-N-[5-[1-(trifluoromethyl)cyclo-propyl]isoxazol-3-yl]acetamide], the IC50 on FLT3-ITD-F691L and on FLT3-ITD-D835V was 20 to 50 nM each time.

As for `COc1cc2nc(-c3ccc(CC(=O)Nc4cc(C(C)(C)C(F)(F)F)on4)c(F)c3)cnc2cc1OC1COC1` [Example 147, 2-[2-fluoro-4-[7-methoxy-6-(oxetan-3-yloxy)quinoxalin-2-yl]phenyl]-N-[5-(2,2,2-trifluoro-1,1-dimethyl-ethyl)isoxazol-3-yl]acetamide], the IC50 at FLT3-ITD-F691L and at FLT3-ITD-D835V was under 10 nM each time.

As for `CC(C)(c1cc(NC(=O)Cc2ccc(-c3cnc4c(N)cccc4c3)cc2F)no1)C(F)(F)F` [Example 151, 2-[4-(8-amino-3-quinolyl)-2-fluoro-phenyl]-N-[5-(2,2,2-trifluoro-1,1-dimethyl-ethyl)isoxazol-3-yl]acetamide], the IC50 on FLT3-ITD-F691L is 20 to 50 nM; at FLT3-ITD-D835V, over 50 nM.

On to `COc1cc2nc(O)c(-c3ccc(CC(=O)Nc4cc(C5(C(F)(F)F)CC5)on4)c(F)c3)nc2cc1OC` [Example 152, 2-[4-(6,7-dimethoxy-3-hydroxy-quinoxalin-2-yl)-2-fluoro-phenyl]-N-[5-[1-(trifluoromethyl)cyclo-propyl]isoxazol-3-yl]acetamide], for which the IC50 on FLT3-ITD-F691L and at FLT3-ITD-D835V was over 50 nM in each case.

Regarding `COc1cc2ncc(-c3ccc(CC(=O)Nc4cc(C(C)(C)C)n[nH]4)c(F)c3)nc2cc1OC` [Example 153, N-(3-tert-butyl-1H-pyrazol-5-yl)-2-[4-(6,7-dimethoxyquinoxalin-2-yl)-2-fluoro-phenyl]acetamide], the IC50 at FLT3-ITD-F691L and on FLT3-ITD-D835V was under 10 nM in each case.

Regarding `CN(C)C(=O)COc1cc2ncc(-c3ccc(CC(=O)Nc4cc(C5(C(F)(F)F)CC5)on4)c(F)c3)nc2cc1OCC(=O)N(C)C` [Example 154, 2-[4-[6,7-bis[2-(dimethylamino)-2-oxo-ethoxy]quinoxalin-2-yl]-2-fluoro-phenyl]-N-[5-[1-(trifluoromethyl)cyclo-propyl]isoxazol-3-yl]acetamide], the IC50 on FLT3-ITD-F691L and on FLT3-ITD-D835V was over 50 nM throughout.

For the compound `COc1ccc2ncc(-c3ccc(CC(=O)Nc4cc(C5(C(F)(F)F)CC5)on4)c(F)c3)nc2n1` [Example 155, 2-[2-fluoro-4-(6-methoxypyrido[2,3-b]pyrazin-3-yl)phenyl]-N-[5-[1-(trifluoromethyl)cyclo-propyl]isoxazol-3-yl]acetamide OR 2-[2-fluoro-4-(6-methoxypyrido[2,3-b]pyrazin-2-yl)phenyl]-N-[5-[1-(trifluoromethyl)cyclo-propyl]isoxazol-3-yl]acetamide], the half-inhibitory concentration (IC50) on FLT3-ITD-F691L and on FLT3-ITD-D835V was under 10 nM each time.

With `COc1cc2ncc(-c3ccc(CC(=O)Nc4cc(C5(C(F)(F)F)CC5)on4)c(F)c3)nc2cc1OCc1ccccc1` [Example 156, 2-[4-(7-benzyloxy-6-methoxy-quinoxalin-2-yl)-2-fluoro-phenyl]-N-[5-[1-(trifluoromethyl)cyclo-propyl]isoxazol-3-yl]acetamide], the IC50 on FLT3-ITD-F691L and on FLT3-ITD-D835V was 20 to 50 nM throughout.

As to `COCCOc1cc2ncc(-c3ccc(CC(=O)Nc4cc(C(C)(C)C(F)(F)F)on4)c(F)c3)nc2cc1OC` [Example 159, 2-[2-fluoro-4-[7-methoxy-6-(2-methoxy-ethoxy)quinoxalin-2-yl]phenyl]-N-[5-(2,2,2-trifluoro-1,1-dimethyl-ethyl)isoxazol-3-yl]acetamide], the half-maximal inhibitory concentration (IC50) at FLT3-ITD-F691L and at FLT3-ITD-D835V was under 10 nM each time.

As for `COCCOc1cc2nc(-c3ccc(CC(=O)Nc4cc(C(C)(C)C(F)(F)F)on4)c(F)c3)cnc2cc1OC` [Example 160, 2-[2-fluoro-4-[6-methoxy-7-(2-methoxy-ethoxy)quinoxalin-2-yl]phenyl]-N-[5-(2,2,2-trifluoro-1,1-dimethyl-ethyl)isoxazol-3-yl]acetamide], the IC50 at FLT3-ITD-F691L and at FLT3-ITD-D835V was under 10 nM in each case.

Consider `COCCOc1cc2nc(-c3ccc(CC(=O)Nc4cc(C(C)(C)C)nn4C)c(F)c3)cnc2cc1OC` [Example 161, N-(5-tert-butyl-2-methyl-pyrazol-3-yl)-2-[2-fluoro-4-[6-methoxy-7-(2-methoxyethoxy)quinoxalin-2-yl]phenyl]acetamide], for which the IC50 on FLT3-ITD-F691L and on FLT3-ITD-D835V was under 10 nM in each case.

As to `COCCOc1cc2ncc(-c3ccc(CC(=O)Nc4cc(C(C)(C)C)nn4C)c(F)c3)nc2cc1OC` [Example 162, N-(5-tert-butyl-2-methyl-pyrazol-3-yl)-2-[2-fluoro-4-[7-methoxy-6-(2-methoxyethoxy)quinoxalin-2-yl]phenyl]acetamide], the IC50 on FLT3-ITD-F691L and on FLT3-ITD-D835V was under 10 nM each time.

`COc1cc2nc(-c3ccc(CC(=O)Nc4cc(C5(C(F)(F)F)CC5)on4)c(F)c3)cnc2cc1OCc1ccccc1` [Example 163, 2-[4-(6-benzyloxy-7-methoxy-quinoxalin-2-yl)-2-fluoro-phenyl]-N-[5-[1-(trifluoromethyl)cyclo-propyl]isoxazol-3-yl]acetamide]: the half-maximal inhibitory concentration (IC50) at FLT3-ITD-F691L and at FLT3-ITD-D835V was 20 to 50 nM throughout.

Regarding `COc1cc2nc(-c3ccc(CC(=O)Nc4cc(C(C)(C)C(F)(F)F)on4)c(F)c3)cnc2cc1O` [Example 164, 2-[2-fluoro-4-(6-hydroxy-7-methoxy-quinoxalin-2-yl)phenyl]-N-[5-(2,2,2-trifluoro-1,1-dimethyl-ethyl)isoxazol-3-yl]acetamide], the IC50 at FLT3-ITD-F691L and on FLT3-ITD-D835V was under 10 nM throughout.

As to `COc1cc2nc(-c3ccc(CC(=O)Nc4cc(C5(C(F)(F)F)CC5)on4)c(F)c3)cnc2cc1OCCN=[N+]=[N-]` [Example 166, 2-[4-[6-(2-azidoethoxy)-7-methoxy-quinoxalin-2-yl]-2-fluoro-phenyl]-N-[5-[1-(trifluoromethyl)cyclo-propyl]isoxazol-3-yl]acetamide], the IC50 on FLT3-ITD-F691L and on FLT3-ITD-D835V was under 10 nM throughout.

For `COc1cc2nc(-c3ccc(CC(=O)Nc4cc(C5(C(F)(F)F)CC5)on4)c(F)c3)cnc2cc1OCCNC(C)=O` [Example 168, 2-[4-[6-(2-acetamidoethoxy)-7-methoxy-quinoxalin-2-yl]-2-fluoro-phenyl]-N-[5-[1-(trifluoromethyl)cyclo-propyl]isoxazol-3-yl]acetamide], the half-inhibitory concentration (IC50) at FLT3-ITD-F691L and on FLT3-ITD-D835V was under 10 nM in each case.

Take `COc1cc2nc(C)c(-c3ccc(CC(=O)Nc4cc(C5(C(F)(F)F)CC5)on4)c(F)c3)nc2cc1OC` [Example 169, 2-[4-(6,7-dimethoxy-3-methyl-quinoxalin-2-yl)-2-fluoro-phenyl]-N-[5-[1-(trifluoromethyl)cyclo-propyl]isoxazol-3-yl]acetamide]: the IC50 is 20 to 50 nM at FLT3-ITD-F691L and over 50 nM at FLT3-ITD-D835V.

On to `COc1cc2nc(-c3ccc(CC(=O)Nc4cc(C5(C(F)(F)F)CC5)on4)c(F)c3)cnc2cc1OCCn1cncn1` [Example 185, 2-[2-fluoro-4-[7-methoxy-6-[2-(1,2,4-triazol-1-yl)ethoxy]quinoxalin-2-yl]phenyl]-N-[5-[1-(trifluoro-methyl)cyclopropyl]isoxazol-3-yl]acetamide], for which, in experiment [1], the IC50 is under 10 nM.

Regarding `COc1cc2ncc(-c3ccc(CC(=O)Nc4cc(C(C)(C)C(F)(F)F)on4)c(F)c3)cc2cc1OCCN1CCC(O)CC1` [Example 206, 2-[2-fluoro-4-[6-[2-(4-hydroxy-1-piperidyl)ethoxy]-7-methoxy-3-quinolyl]phenyl]-N-[5-(2,2,2-trifluoro-1,1-dimethyl-ethyl)isoxazol-3-yl]acetamide], the IC50 in experiment [1] is under 10 nM.
